Test results reported in publication PMC6844273, “Platinum(IV) dihydroxido diazido N-(heterocyclic)imine complexes are potently photocytotoxic when irradiated with visible light” (Chemical Science, 2019).

Tests used:
[1] = assay type: physicochemical; settings: water, 20 °C
[2] = Photodecomposition in H2O (loss of N3→Pt LMCT band) by UV-vis spectroscopy; assay type: physicochemical; settings: for Time to achieve conversion comparable to 463 nm irradiation (loss of N3→Pt band): green light 517 nm, 30 mW cm^–2
Description: Solutions of the Pt^IV diazido complexes (60 μM, H2O) were irradiated with blue light (463 nm, 57 mW cm^–2). The decrease in intensity of the λmax N3 → Pt band was monitored over time for each complex by UV-vis spectroscopy until ca. 22% of the original intensity remained (Fig. S2 ^†). The data were fitted to y = y0 + Ae^Rox, with r^2 > 0.98 (Fig. 7).
Figure S2: Changes in UV-Vis spectra of the PtIV diazido complexes (60 μM in H2O) upon irradiation
Table S11. Decomposition half-lives of complexes (60 μM) when irradiated with blue (463 nm) light,
as measured by UV-Vis spectroscopy.
(1 picture or pasted object on this page, not shown here)

[3] = test system: A2780, A2780cis and OE19 cancer cell lines; settings: absence of irradiation, cell lines investigated
Description: (§1) The novel trans-di-(N-heterocyclic)imine dihydroxido diazido Pt^IV complexes Pt^IV complexes were evaluated against human ovarian (A2780), cisplatin-resistant ovarian (A2780cis) and oesophageal (OE19) cancer cell lines, and the previously reported compounds (FM165 and 3) were also evaluated for comparison. […]
(§2) Maintenance. Human ovarian carcinoma (A2780), cisplatin-resistant ovarian carcinoma (A2780CIS) and oesophageal adenocarcinoma (OE19) cells were maintained in RPMI medium containing 10% Foetal Calf Serum (FCS). Cell lines were obtained from the European Collection of Animal Cell Cultures (ECACC). Cells were maintained in antibiotic-free medium in a humidified atmosphere of 95% air: 5% CO2 and subcultured every 7-10 days. Mycoplasma checks were done using the Hoechst staining method. Cells were seeded into dishes the night before experiments at a density of 6 - 7×10^4 cells.cm-2.
(§3) Experiments were carried out in an adapted laboratory with ambient light levels kept below 1 lux […]
Irradiation. Cells were irradiated by a bank of TL03 light sources (λmax 420 nm), filtered to attenuate wavelengths below 400 nm. Irradiances, dosimetry and calibrations were traceable to the National […]
Cells were irradiated in stirred suspension. Sham irradiated cells were treated identically to the test cells but were covered during irradiation.
Treatment. Test compounds were prepared in Earle’s Balanced Salt Solution (EBSS) and filtered immediately before use. Photofrin was used as the positive control for visible light irradiation. The positive and negative controls were included on each plate in parallel with the complexes. Cell viability […]
Cells were treated for 1 h at 37 °C/5% CO2 with EBSS containing the test compound, and then irradiated with 5 J.cm-2 visible radiation.
Phototoxic Index and Wavelength-Dependence. The phototoxic Index (PI) was determined 24 h after irradiation using the neutral red uptake assay;14 following cell uptake the neutral red dye accumulates in lysosomes, the low pH in the lysosomal matrix of live cells causes the dye to becomes charged, allowing it to be retained in this organelle.15 The dye was then extracted from the cells upon solubilisation and quantified. Protocol: a stock solution of neutral red was prepared in water (4 mg. mL-1) and diluted 80-fold in the cell culture medium (RPMI). Prior to addition to the cells, the solution was heated to 37 °C and filtered (no. 1 Whatman paper). The growth medium was removed from the cells, the neutral red dye (100 μL) was added and the cells are incubated for 3 hours in the dark. […] The dye concentration was quantified by measuring the absorbance at 450 nm. […] Goodness of fit was determined from the R2 values of the curves and 95% confidence intervals. […]

[4] = test system: human ovarian (A2780) cancer cell line; experiment: Phototoxicity / dark cytotoxicity, neutral red uptake assay, A2780
Description: as §1
(§4) controller and 3 UVA lamps (Hitachi, λmax = 361 nm) or 6 Luzchem LZC-420 lamps (λmax = 420 nm) with no other sources of light filtration, or LED light sources (BASETech model no. SP-GU10 230V~50 Hz […]
as §2, §3
Irradiation. Cells were irradiated by a bank of TL03 light sources (λmax 420 nm), filtered to attenuate wavelengths below 400 nm. […]
(§5) Phototoxic Index and Wavelength-Dependence. The phototoxic Index (PI) was determined 24 h after irradiation using the neutral red uptake assay;14 following cell uptake the neutral red dye accumulates in lysosomes, the low pH in the lysosomal matrix of live cells causes the dye to becomes charged, allowing it to be retained in this organelle.15 The dye was then extracted from the cells upon solubilisation and quantified. […] The dye concentration was quantified by measuring the absorbance at 450 nm. […] Goodness of fit was determined from the R2 values of the curves and 95% confidence intervals. […]

[5] = test system: cisplatin-resistant ovarian (A2780cis) cancer cell line; experiment: Phototoxicity / dark cytotoxicity, neutral red uptake assay, A2780cis
Description: as §1
as §2, with “Cells were seeded into dishes the night before experiments at a density of 6 - 7×10^4 cells.cm-2.” left out
as §5

[6] = test system: oesophageal (OE19) cancer cell line; experiment: Phototoxicity / dark cytotoxicity, neutral red uptake assay, OE19; settings: ratio of cytotoxicity following irradiation (420 nm) vs. in the dark
Description: as §1, §4
Maintenance. Human ovarian carcinoma (A2780), cisplatin-resistant ovarian carcinoma (A2780CIS) and oesophageal adenocarcinoma (OE19) cells were maintained in RPMI medium containing 10% Foetal Calf Serum (FCS). Cell lines were obtained from the European Collection of Animal Cell Cultures (ECACC). […]
as §5

[7] = 60 μM in H2O, blue light 463 nm, 57 mW cm^–2, UV-vis

| Substance | Maximum aqueous solubility [1] [mM] | Decomposition half-life t1/2 [2, 7] [min] | Time to achieve conversion comparable to 463 nm irradiation (loss of N3→Pt band) [2] [h] | Dark toxicity [3] | also measured |
| --- | --- | --- | --- | --- | --- |
| trans,trans,trans-[Pt(N3)2(OH)2(4-picoline)(pyridine)] [Complex 20] | 20 | 20 | > 6 | minimal toxicity in the dark; also recorded: non-toxic in the absence of irradiation | – |
| trans,trans,trans-[Pt(N3)2(OH)2(1-methylimidazole)2] [Complex 32] | – | – | – | – | Decomposition half-life t1/2 ([2]; buffer): 22 min |
| trans,trans,trans-[Pt(N3)2(OH)2(2-picoline)(pyridine)] [Complex 18] | 20 | 9 | > 6 | – | Dark toxicity ([4]; A2780, absence of irradiation): moderate dark toxicity; also recorded: cytotoxic in the absence of irradiation; Dark toxicity ([5]; absence of irradiation): moderate dark toxicity; also recorded: cytotoxic in the absence of irradiation |
| trans,trans,trans-[Pt(N3)2(OH)2(4-picoline)2] [Complex 26] | 4 | – | – | minimally toxic in the absence of irradiation; also recorded: minimal toxicity in the dark; also recorded: non-toxic in the absence of irradiation | Phototoxic potency, fold more potent than 3 ([4]; A2780, 420 nm): 3 fold; PI (phototoxic index) ([4]; A2780, ratio of cytotoxicity following irradiation (420 nm) vs. in the dark): >95; PI (phototoxic index) ([5]; ratio of cytotoxicity following irradiation (420 nm) vs. in the dark): >48.8; PI (phototoxic index) [6]: >24 |
| trans,trans,trans-[Pt(N3)2(OH)2(3-picoline)2] [Complex 23] | – | – | – | minimal toxicity in the dark; also recorded: non-toxic in the absence of irradiation | – |
| trans,trans,trans-[Pt(N3)2(OH)2(3-picoline)(pyridine)] [Complex 19] | 20 | 21 | > 6 | minimally toxic in the absence of irradiation; also recorded: minimal toxicity in the dark; also recorded: non-toxic in the absence of irradiation | – |

Entries after “also recorded” stand apart in the source; their conditions may differ.
